The source of these data is ChEMBL document CHEMBL6078647 (J Med Chem, 2024).

Common to all, as to format: functional, cell membranes
The target of experiment [1] is T1, Type-1 angiotensin II receptor (Homo sapiens, UniProt P30556). Put plainly: Antagonist activity at Flag-tagged AT1R (unknown origin) extracted from HEK293 cell membrane co expressing YPET-ARRB1 assessed as beta-arrestin 1 recruitment using NanoGlo as substrate preincubated for 30 mins followed by substrate addition for 10 mins by BRET assay. On the technique in general: Recruitment of arrestin is a read-out of receptor activation apart from second messengers.

For experiment [2], the target named is T1, Type-1 angiotensin II receptor. Put plainly: Antagonist activity at Flag-tagged AT1R (unknown origin) extracted from HEK293 cell membrane co expressing YPET-ARRB2 assessed as beta-arrestin 2 recruitment using NanoGlo as substrate preincubated for 30 mins followed by substrate addition for 10 mins by BRET assay.
For experiment [3] the target is unchanged. The experiment in a line: Antagonist activity at Flag-tagged AT1R (unknown origin) extracted from HEK293 cell membrane assessed as increase in intracellular calcium incubated for 30 mins by microplate reader analysis. (A change in cytosolic calcium serves as a functional read-out for many receptors and channels.)

In the case of `CCCCc1nc(Cl)c(CO)n1Cc1ccc(-c2ccccc2-c2nnn[nH]2)cc1` [LOSARTAN], the EC50 result is “Not_determined” in experiment [1], “Not_determined” in experiment [2] and “Active” in experiment [3].
